# Yeast mating assay B: variants of the scFv Ab-14

All variants were tested on one target, the spike HR2 peptide PDVDLGDISGINAS (SARS-CoV-2).

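Phage display of a naive human antibody library on the peptide gave the parent. Designed CDR sequences, proposed from the first random library and measured here. Group labels follow the data file (Ctrl: baseline library sampled from a position-specific scoring matrix, with some repeated check sequences; Rand: our label for a block that the file lists under HC and that is probably the random mutants of the ten best first-round binders; GP: Gaussian process model; GPLM: also part of the Gaussian process libraries; HC: hill climbing; Gen: genetic algorithm; Gibbs: Gibbs sampling; a sequence that several methods proposed may carry one label only). The scFvs were displayed on barcoded MATa yeast, the peptide on MATalpha yeast. Binding brings cells together so that they mate, and sequencing counts the barcode pairs among the diploids. Read counts were normalised to the haploid input and turned into Kd by a linear fit to BCL2-family pairs of known affinity, for each replicate. The assay was run in six technical replicates.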

Ab-14 is the parent antibody, in scFv form: VH, then a 15-residue (Gly4Ser)3 linker, then VL. The heavy chain is unchanged in all variants.
VH: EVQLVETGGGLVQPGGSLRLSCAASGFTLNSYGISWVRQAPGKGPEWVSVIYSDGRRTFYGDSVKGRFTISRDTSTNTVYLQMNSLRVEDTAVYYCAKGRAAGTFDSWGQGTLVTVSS
VL: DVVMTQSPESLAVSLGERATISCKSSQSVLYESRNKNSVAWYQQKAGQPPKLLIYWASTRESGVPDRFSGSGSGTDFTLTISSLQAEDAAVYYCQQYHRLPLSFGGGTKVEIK

Substitutions are numbered in sequence along the VL above, starting at 1 (not Kabat).
This list holds designs with at most six substitutions.
Each Kd is an estimate from the mating assay, the geometric mean of the replicates in which the pair was seen; lower is stronger.
"nd" marks a missing value. The strain was present, yet no cells mated with the target were sequenced in any replicate, which points to weak or no binding.

The variant S25V/V29W/Y31M/W56E/E61M [GP_HC] showed 840 pM (6 of 6 replicates).
The variant S25Q/V29D/W56D/Q96A [GP_HC] showed 890 pM (6 of 6 replicates).
The variant V29R/L30M/Y31G/W56G [Ctrl] showed 64 nM (5 of 6 replicates).
The variant Q27N/V29Y/W56A [GP_HC] showed 1.7 nM (6 of 6 replicates).
The variant S25N/Y97R/R99S/L102P [Ctrl] showed 32 nM (1 of 6 replicates).
The variant S25L/Q27G/S38A/W56N [GP_Gen] showed 450 pM (6 of 6 replicates).
The variant S25L/S26L/W56E [GP_Gen] showed 1.0 nM (6 of 6 replicates).
The variant S25L/K36P/W56N/T59Q [GP_Gen] showed 670 pM (6 of 6 replicates).
The variant S25L/S26L/S33D/W56H/S62D [GP_HC] showed 670 pM (6 of 6 replicates).
The variant S25F/S26E/V29N/L30G/W56N/H98W [GP_Gibbs] showed 2.5 nM (6 of 6 replicates).
The variant Q27G/V29Y/R34M/W56E [GP_HC] showed 1.4 nM (6 of 6 replicates).
The variant Y31P/S33H/R34T/E61V [Ctrl] showed 1.9 nM (6 of 6 replicates).
The variant S26A/Q27Y/V29E/Y31G/W56S [GP_Gibbs] showed 4.1 nM (6 of 6 replicates).
The variant S25L/S26P/S28G/V29D/W56G/T59V [GP_HC] showed 760 pM (6 of 6 replicates).
The variant Q27M/V29Y/R34M/W56N/A57G [GP_HC] showed 920 pM (6 of 6 replicates).
The variant S25L/V29Q/S38N/W56N/E61C [GP_Gen] showed 590 pM (6 of 6 replicates).
The variant V29K/L30D/W56F/T59I [Ctrl] showed 98 nM (6 of 6 replicates).
The variant S25V/W56N/S103M [GP_Gen] showed 400 pM (6 of 6 replicates).
The variant S25F/Y31M/L102N [Ctrl] showed 68 nM (6 of 6 replicates).
The variant K24H/S25V/Q27P/L30A/W56N [GP_HC] showed 320 pM (6 of 6 replicates).
The variant S25C/W56G [Ctrl] showed 940 pM (6 of 6 replicates).
The variant S25L/V29H/R34S [Ctrl] showed 3.0 nM (6 of 6 replicates).
The variant S25L/N35M/W56N/T59Q/S62E [GP_Gen] showed 720 pM (6 of 6 replicates).
The variant S26L/V29G/S38N/W56H/S62D/H98A [GP_HC] showed 340 pM (6 of 6 replicates).
The variant S25Q/Y31M/W56M [GP_HC] showed 7.2 nM (6 of 6 replicates).
The variant E32I/S33E/W56A [Ctrl] showed 120 nM (1 of 6 replicates).
The variant L30Q/N35Q/W56E [Ctrl] showed 4.5 nM (6 of 6 replicates).
The variant S25L/W56N/T59Y/S62V [GP_Gen] showed 980 pM (6 of 6 replicates).
The variant V29Q/E32N/S33G/L102C [Ctrl] showed nd (0 of 6 replicates).
The variant S25I/V29D/S62K/Q95E [Ctrl] showed 9.0 nM (6 of 6 replicates).
The variant Q27I/V29Q/W56E [GP_HC] showed 1.4 nM (6 of 6 replicates).
The variant N37H/S58I/T59I/Q96W [Ctrl] showed nd (0 of 6 replicates).
The variant S26L/V29G/Y31G/W56H/S62D [GP_HC] showed 2.2 nM (6 of 6 replicates).
The variant V29E/W56G [GPLM_HC] showed 2.4 nM (6 of 6 replicates).
The variant S25L/S26E/W56N/S62V [GP_Gen] showed 460 pM (6 of 6 replicates).
The variant S25F/S26P/W56E/T59Q [GP_Gen] showed 650 pM (6 of 6 replicates).
The variant S26I/W56E [Ctrl] showed 13 nM (6 of 6 replicates).
The variant K24H/Q27P/K36L/W56N [GP_HC] showed 2.0 nM (6 of 6 replicates).
The variant R34S/W56D/S62D [Ctrl] showed 1.0 nM (6 of 6 replicates).
The variant S25F/S26Y/W56E [GP_Gen] showed 830 pM (6 of 6 replicates).
The variant K24H/S25L/L30E/W56N [GP_Gen] showed 2.3 nM (6 of 6 replicates).
The variant Q27I/V29Y/K36E/W56E/S62L [GP_HC] showed 4.3 nM (6 of 6 replicates).
The variant S28D/H98A [Ctrl] showed 140 nM (5 of 6 replicates).
The variant S25V/V29W/Y31K/W56E/E61L [GP_HC] showed 390 pM (6 of 6 replicates).
The variant S25L/S26L/N35D/W56H/E61L [GP_HC] showed 1.6 nM (6 of 6 replicates).
The variant S26L/W56H/S62D/Q96A/H98D [Rand] showed 8.3 nM (6 of 6 replicates).
The variant K24H/S25L/Q27W/S28V/Y31Q/W56N [GP_HC] showed 2.1 nM (6 of 6 replicates).

The opening 5 entries, copied out:

| changes | group | Kd (apparent) | replicates with signal |
|---|---|---|---|
| S25V/V29W/Y31M/W56E/E61M | GP_HC | 840 pM | 6 of 6 |
| S25Q/V29D/W56D/Q96A | GP_HC | 890 pM | 6 of 6 |
| V29R/L30M/Y31G/W56G | Ctrl | 64 nM | 5 of 6 |
| Q27N/V29Y/W56A | GP_HC | 1.7 nM | 6 of 6 |
| S25N/Y97R/R99S/L102P | Ctrl | 32 nM | 1 of 6 |

The range of this assay differs from that of the first round, and the authors advise against merging the two.
Three control strains display no target. For all light chain designs, 4% of the pairings with them gave a signal, with a median of 430 nM and one signal in twenty below 38 nM, so weak values seen in few replicates may be background.
The authors' rule: three or more of the six replicates give a measured affinity, fewer mean a poor binder.

The measurements come from Li et al. 2023 (doi:10.1038/s41467-023-39022-2) through the FLAb antibody collection.